Experimental data taken from US12037368B2, “Antimicrobial type-II bacteriocins” (priority 2017, dated 2024).

Tested on: Staphylococcus aureus (ISP 479C, ISP 479R)
Assay: Radial diffusion antimicrobial assay, S. aureus
Assay type: cell-based
Conditions: pH 5.5 (phagolysosomal/wound septic buffer), compared with pH 7.5
Experimental: Antimicrobial assays were performed using a well-established radial diffusion method modified to pH 5.5 or 7.5. A panel of microorganisms was tested: Gram-positive Staphylococcus aureus (ISP 479C, ISP 479R); Gram-negative Salmonella typhimurium (MS 5996s, MS 14028), Pseudomonas aeruginosa (PA01), Acinetobacter baumanni (17928) and the fungus Candida albicans (36082S, 36082R). Logarithmic phase organisms were inoculated (10^6 CFU/ml) into buffered agarose, and poured into plates. Peptides (10 μg) were introduced into wells in the seeded matrix, and incubated for 3 h at 37° C. Nutrient overlay medium was applied, and assays incubated at 37° C. or 30° C. for bacteria or fungi, respectively. After 24 h, zones of inhibition were measured. Independent experiments were repeated a minimum of two times.

Sequence: KTIATNATYYPNKWAKSAGKWIASKIK [Peptide 3, synthesized putative bacteriocin from B3ZXE9, Bacillus cereus]
- activity against Gram positive S. aureus at pH 5.5: lost nearly all of its activity
